Test results taken from patent publication US20240225981A1, “Synthesized Molecule of Solketal Esters from Palm Kit Oil and Glycerin for Cosmetic and Agricultural Formulations” (BRASIL BIO FUELS S.A, priority 2023, published 2024).

Settings: oral and acute toxicity tests; GHS standards

Substance: Cocoyl glyceryl solketal
- GHS toxicity classification: class 5 (non-toxic)
